Values of other authors as cited in patent US20090178587A9, “Control of biofilms in industrial water systems” (priority 2001, published 2009).

How the values were obtained:
sessile bacteria = settings: cited from earlier work
biofilm bacteria = settings: 4-day period; chlorine 0-5 ppm residual, bromine 0-2 ppm residual; cited from earlier work

## chlorine
Sessile bacteria; continuous chlorine residual of 0.4 ppm
  biofilm counts after treatment: about 102 bacteria/in^2
Sessile bacteria; pH 9, H2O2 2-3 ppm continuous, glutaraldehyde or THPS 50 ppm, chlorine 0.4 ppm continuous residual
  log reductions in sessile bacteria / biofilm counts: 5 log
Biofilm bacteria
  log reductions of biofilm bacteria: about 4 log
